Patent US4816465A, “Decahydroquinolines and analgesic use thereof” (dated 1989)
Where two headings read alike, the source gives them in different places.

The chains behind the UniProt entries cited, without tags or fusion partners. Where a name states a change or a piece, a line headed by the entry shows the natural chain unless it says otherwise.
UniProt P41144: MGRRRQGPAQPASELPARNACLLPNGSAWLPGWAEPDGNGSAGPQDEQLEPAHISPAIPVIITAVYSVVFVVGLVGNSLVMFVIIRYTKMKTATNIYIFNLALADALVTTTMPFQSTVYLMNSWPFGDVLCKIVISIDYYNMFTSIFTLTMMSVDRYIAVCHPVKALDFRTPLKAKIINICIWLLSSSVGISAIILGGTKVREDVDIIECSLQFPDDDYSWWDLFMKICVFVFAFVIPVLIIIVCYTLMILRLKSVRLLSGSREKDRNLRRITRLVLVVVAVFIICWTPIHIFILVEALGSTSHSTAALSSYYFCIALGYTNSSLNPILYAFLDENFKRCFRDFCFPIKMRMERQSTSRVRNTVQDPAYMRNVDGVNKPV

Tests used:
Male rats = details: intravenous
Opiate Receptor K = Opiate Receptor K (Cavia porcellus, UniProt P41144); assay: Bond with the Opiate Receptor K in vitro (displacement of 3H ethylketocyclazocine, guinea-pig cerebella membranes); details: read-out: IC50 (50% inhibiting concentration), 9 3H ethylketo-cyclazocine 1 nM, Tris pH 7.7, 25° C., 40 minutes
mice = assay: Stretchings Test (acetic acid, analgesic activity); details: oral, half-an-hour before acetic acid injection; 15 minutes observation
Female mice = assay: Hot Plate Test (analgesic activity); details: sub-cutaneous; 30 minutes after treatment; plate 56° C.
[1] = tested on: electroencephalogram of anaesthetized rats; assay: Test of asphyxic anoxia (spectral analysis of electroencephalogram)
[2] = 1 mg/kg i.v., 2 minutes after anoxia
[3] = 1 mg/kg i.v., 10 minutes after anoxia
[4] = 1 mg/kg i.v., 30 minutes after anoxia
[5] = 5 mg/kg i.v., 2 minutes after anoxia
[6] = 5 mg/kg i.v., 10 minutes after anoxia
[7] = 5 mg/kg i.v., 30 minutes after anoxia

COc1cc(C(=O)N2CCC[C@@H]3CCC[C@@H](N4CCCC4)[C@@H]32)cc(OC)c1OC (relative stereo)
Percentage of extension of time of appearance of disturbances of cardiac rhythm (Male rats; 0.25 mg/kg): +45% | Percentage of extension of time of appearance of disturbances of cardiac rhythm (Male rats; 0.5 mg/kg): +85% | Percentage of extension of time of appearance of disturbances of cardiac rhythm (Male rats; 1 mg/kg): +141%

O=C(Cc1ccc(Br)cc1)N1CCC[C@@H]2CCC[C@@H](N3CCCC3)[C@@H]21 (relative stereo)
IC50 (Opiate Receptor K): 9.5 nM

O=C(Cc1ccc(C(F)(F)F)cc1)N1CCC[C@@H]2CCC[C@@H](N3CCCC3)[C@@H]21 (relative stereo)
DA50 (dose giving reduction of 50% in the number of stretching) (mice): 21 mg/kg | IC50 (Opiate Receptor K): 5 nM

O=C(Cc1ccc([N+](=O)[O-])cc1)N1CCC[C@@H]2CCC[C@@H](N3CCCC3)[C@@H]21 (relative stereo)
DA50 (dose giving reduction of 50% in the number of stretching) (mice): 20 mg/kg | IC50 (Opiate Receptor K): 17 nM

O=C(Cc1cccc2sccc12)N1CCC[C@@H]2CCC[C@@H](N3CCCC3)[C@@H]21 (relative stereo)
IC50 (Opiate Receptor K): 4.1 nM

O=C(Cc1cccc2ccccc12)N1CCC[C@@H]2CCC[C@@H](N3CCCC3)[C@@H]21 (relative stereo)
IC50 (Opiate Receptor K): 6 nM

O=C(Cc1ccc(Cl)cc1Cl)N1CCC[C@@H]2CCC[C@@H](N3CCCC3)[C@@H]21 (relative stereo)
IC50 (Opiate Receptor K): 12 nM

O=C(Cc1ccc(Cl)c(Cl)c1)N1CCC[C@@H]2CCC[C@@H](N3CCCC3)[C@@H]21 (relative stereo)
Percentage of extension of time of appearance of disturbances of cardiac rhythm (Male rats; 1 mg/kg): +17.5% | Percentage of extension of time of appearance of disturbances of cardiac rhythm (Male rats; 2.5 mg/kg): +31.5% | Percentage of extension of time of appearance of disturbances of cardiac rhythm (Male rats; 5 mg/kg): +56.6% | Percentage of extension of time of appearance of disturbances of cardiac rhythm (Male rats; 10 mg/kg): +113.5% | AD100 (dose which increased the reaction time by 100%) (Female mice): 20 mg/kg | DA50 (dose giving reduction of 50% in the number of stretching) (mice): 18 mg/kg | EEG TOTAL POWER (percentage of check before anoxia) [1, 2]: 70 ± 22% | EEG energy, ALPHA band (percentage of check before anoxia) [1, 2]: 19 ± 6% | EEG energy, BETA band (percentage of check before anoxia) [1, 2]: 21 ± 7% | EEG energy, DELTA band (percentage of check before anoxia) [1, 2]: 214 ± 60% | EEG energy, THETA band (percentage of check before anoxia) [1, 2]: 6 ± 2% | EEG TOTAL POWER (percentage of check before anoxia) [1, 3]: 173 ± 41% | EEG energy, ALPHA band (percentage of check before anoxia) [1, 3]: 73 ± 5% | EEG energy, BETA band (percentage of check before anoxia) [1, 3]: 96 ± 11% | EEG energy, DELTA band (percentage of check before anoxia) [1, 3]: 404 ± 123% | EEG energy, THETA band (percentage of check before anoxia) [1, 3]: 57 ± 8% | EEG TOTAL POWER (percentage of check before anoxia) [1, 4]: 120 ± 9% | EEG energy, ALPHA band (percentage of check before anoxia) [1, 4]: 79 ± 6% | EEG energy, BETA band (percentage of check before anoxia) [1, 4]: 87 ± 5% | EEG energy, DELTA band (percentage of check before anoxia) [1, 4]: 225 ± 32% | EEG energy, THETA band (percentage of check before anoxia) [1, 4]: 72 ± 6% | EEG TOTAL POWER (percentage of check before anoxia) ([1]; 1 mg/kg i.v., before anoxia): 100 ± 0% | EEG energy, ALPHA band (percentage of check before anoxia) ([1]; 1 mg/kg i.v., before anoxia): 100 ± 0% | EEG energy, BETA band (percentage of check before anoxia) ([1]; 1 mg/kg i.v., before anoxia): 100 ± 0% | EEG energy, DELTA band (percentage of check before anoxia) ([1]; 1 mg/kg i.v., before anoxia): 100 ± 0% | EEG energy, THETA band (percentage of check before anoxia) ([1]; 1 mg/kg i.v., before anoxia): 100 ± 0% | EEG TOTAL POWER (percentage of check before anoxia) ([1]; 1 mg/kg i.v., end of anoxia): 0 ± 0% | EEG energy, ALPHA band (percentage of check before anoxia) ([1]; 1 mg/kg i.v., end of anoxia): 0 ± 0% | EEG energy, BETA band (percentage of check before anoxia) ([1]; 1 mg/kg i.v., end of anoxia): 0 ± 0% | EEG energy, DELTA band (percentage of check before anoxia) ([1]; 1 mg/kg i.v., end of anoxia): 1 ± 0% | EEG energy, THETA band (percentage of check before anoxia) ([1]; 1 mg/kg i.v., end of anoxia): 0 ± 0% | value of the delta bands (in words) ([1]; 1 mg/kg intravenous, 30 minutes from end of anoxia): still about twice the base value | recuperation of the electro-cortical activity (in words) ([1]; 1 mg/kg, intravenous): an anticipation of the recuperation of the electro-cortical activity was observed, while the effect on the normalization of the trace was less evident | EEG TOTAL POWER (percentage of check before anoxia) [1, 5]: 68 ± 14% | EEG energy, ALPHA band (percentage of check before anoxia) [1, 5]: 25 ± 5% | EEG energy, BETA band (percentage of check before anoxia) [1, 5]: 33 ± 5% | EEG energy, DELTA band (percentage of check before anoxia) [1, 5]: 243 ± 68% | EEG energy, THETA band (percentage of check before anoxia) [1, 5]: 6 ± 2% | EEG TOTAL POWER (percentage of check before anoxia) [1, 6]: 79 ± 6% | EEG energy, ALPHA band (percentage of check before anoxia) [1, 6]: 55 ± 4% | EEG energy, BETA band (percentage of check before anoxia) [1, 6]: 103 ± 14% | EEG energy, DELTA band (percentage of check before anoxia) [1, 6]: 127 ± 25% | EEG energy, THETA band (percentage of check before anoxia) [1, 6]: 63 ± 11% | EEG TOTAL POWER (percentage of check before anoxia) [1, 7]: 100 ± 8% | EEG energy, ALPHA band (percentage of check before anoxia) [1, 7]: 80 ± 8% | EEG energy, BETA band (percentage of check before anoxia) [1, 7]: 102 ± 9% | EEG energy, DELTA band (percentage of check before anoxia) [1, 7]: 123 ± 14% | EEG energy, THETA band (percentage of check before anoxia) [1, 7]: 94 ± 14% | EEG TOTAL POWER (percentage of check before anoxia) ([1]; 5 mg/kg i.v., before anoxia): 100 ± 0% | EEG energy, ALPHA band (percentage of check before anoxia) ([1]; 5 mg/kg i.v., before anoxia): 100 ± 0% | EEG energy, BETA band (percentage of check before anoxia) ([1]; 5 mg/kg i.v., before anoxia): 100 ± 0% | EEG energy, DELTA band (percentage of check before anoxia) ([1]; 5 mg/kg i.v., before anoxia): 100 ± 0% | EEG energy, THETA band (percentage of check before anoxia) ([1]; 5 mg/kg i.v., before anoxia): 100 ± 0% | EEG TOTAL POWER (percentage of check before anoxia) ([1]; 5 mg/kg i.v., end of anoxia): 0 ± 0% | EEG energy, ALPHA band (percentage of check before anoxia) ([1]; 5 mg/kg i.v., end of anoxia): 0 ± 0% | EEG energy, BETA band (percentage of check before anoxia) ([1]; 5 mg/kg i.v., end of anoxia): 0 ± 0% | EEG energy, DELTA band (percentage of check before anoxia) ([1]; 5 mg/kg i.v., end of anoxia): 1 ± 0% | EEG energy, THETA band (percentage of check before anoxia) ([1]; 5 mg/kg i.v., end of anoxia): 0 ± 0% | values of the different bands of frequency (in words) ([1]; 5 mg/kg intravenous, 30 minutes after anoxia): almost equal to the base values | recuperation of the electro-cortical activity (in words) ([1]; 5 mg/kg intravenous, all frequency bands): remarkable anticipation of the recuperation of the electro-cortical activity in all the frequency bands | IC50 (Opiate Receptor K): 2.7 nM

CC(C(=O)N1CCCC2CCCC(N3CCCC3)C21)c1ccc(Cl)c(Cl)c1 (stereo not shown)
IC50 (Opiate Receptor K): 5.4 nM
